Experimental data from PubChem BioAssay (NCI).
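How tested: cells in 96-well plates exposed to compound for 48 hours at five concentrations. GI50 marks 50% less growth. TGI marks complete inhibition of growth.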

Tests used:
Experiment in all cases: NCI-60 cell line screen, 48 h; in the data active means GI50 below about 0.43 µM; inactive means the rest
786-0 renal = system: 786-0 renal
A498 renal = system: A498 renal
A549 NSCLC = system: A549 NSCLC
ACHN renal = system: ACHN renal
BT-549 breast = system: BT-549 breast
CAKI-1 renal = system: CAKI-1 renal
CCRF-CEM leukemia = system: CCRF-CEM leukemia
COLO 205 colon = system: COLO 205 colon
DU-145 prostate = system: DU-145 prostate
EKVX NSCLC = system: EKVX NSCLC
HCC-2998 colon = system: HCC-2998 colon
HCT-116 colon = system: HCT-116 colon
HCT-15 colon = system: HCT-15 colon
HL-60(TB) leukemia = system: HL-60(TB) leukemia
HOP-62 NSCLC = system: HOP-62 NSCLC
HS 578T breast = system: HS 578T breast
HT29 colon = system: HT29 colon
IGROV1 ovarian = system: IGROV1 ovarian
K-562 leukemia = system: K-562 leukemia
KM12 colon = system: KM12 colon
LOX IMVI melanoma = system: LOX IMVI melanoma
M14 melanoma = system: M14 melanoma
MALME-3M melanoma = system: MALME-3M melanoma
MCF7 breast = system: MCF7 breast
MDA-MB-231 breast = system: MDA-MB-231 breast
MDA-MB-435 = system: MDA-MB-435
MDA-N = system: MDA-N
MOLT-4 leukemia = system: MOLT-4 leukemia
NCI-H226 lung = system: NCI-H226 lung
NCI-H23 lung = system: NCI-H23 lung
NCI-H322M lung = system: NCI-H322M lung
NCI-H460 lung = system: NCI-H460 lung
NCI-H522 lung = system: NCI-H522 lung
NCI/ADR-RES ovarian = system: NCI/ADR-RES ovarian
OVCAR-3 ovarian = system: OVCAR-3 ovarian
OVCAR-4 ovarian = system: OVCAR-4 ovarian
OVCAR-5 ovarian = system: OVCAR-5 ovarian
OVCAR-8 ovarian = system: OVCAR-8 ovarian
PC-3 prostate = system: PC-3 prostate
RPMI-8226 leukemia = system: RPMI-8226 leukemia
RXF 393 renal = system: RXF 393 renal
SF-268 CNS = system: SF-268 CNS
SF-295 CNS = system: SF-295 CNS
SF-539 CNS = system: SF-539 CNS
SK-MEL-2 melanoma = system: SK-MEL-2 melanoma
SK-MEL-28 melanoma = system: SK-MEL-28 melanoma
SK-MEL-5 melanoma = system: SK-MEL-5 melanoma
SK-OV-3 ovarian = system: SK-OV-3 ovarian
SN12C renal = system: SN12C renal
SNB-19 CNS = system: SNB-19 CNS
SNB-75 CNS = system: SNB-75 CNS
SW-620 colon = system: SW-620 colon
T-47D breast = system: T-47D breast
TK-10 renal = system: TK-10 renal
U251 CNS = system: U251 CNS
UACC-257 melanoma = system: UACC-257 melanoma
UACC-62 melanoma = system: UACC-62 melanoma
UO-31 renal = system: UO-31 renal

O=[N+]([O-])c1ccc(C[As](=O)(O)O)cc1
> 100 µM: TGI (786-0 renal) | TGI (A498 renal) | TGI (A549 NSCLC) | TGI (ACHN renal) | TGI (BT-549 breast) | TGI (CAKI-1 renal) | TGI (CCRF-CEM leukemia) | TGI (COLO 205 colon) | TGI (DU-145 prostate) | TGI (EKVX NSCLC) | TGI (HCC-2998 colon) | TGI (HCT-116 colon) | TGI (HCT-15 colon) | TGI (HL-60(TB) leukemia) | TGI (HOP-62 NSCLC) | TGI (HS 578T breast) | TGI (HT29 colon) | TGI (IGROV1 ovarian) | TGI (K-562 leukemia) | TGI (KM12 colon) | TGI (LOX IMVI melanoma) | TGI (M14 melanoma) | TGI (MALME-3M melanoma) | TGI (MCF7 breast) | TGI (MDA-MB-231 breast) | TGI (MDA-MB-435) | TGI (MDA-N) | TGI (MOLT-4 leukemia) | TGI (NCI-H226 lung) | TGI (NCI-H23 lung) | TGI (NCI-H322M lung) | TGI (NCI-H460 lung) | TGI (NCI-H522 lung) | TGI (NCI/ADR-RES ovarian) | TGI (OVCAR-3 ovarian) | TGI (OVCAR-4 ovarian) | TGI (OVCAR-5 ovarian) | TGI (OVCAR-8 ovarian) | TGI (PC-3 prostate) | TGI (RPMI-8226 leukemia) | TGI (RXF 393 renal) | TGI (SF-268 CNS) | TGI (SF-295 CNS) | TGI (SF-539 CNS) | TGI (SK-MEL-2 melanoma) | TGI (SK-MEL-28 melanoma) | TGI (SK-MEL-5 melanoma) | TGI (SK-OV-3 ovarian) | TGI (SN12C renal) | TGI (SNB-19 CNS) | TGI (SNB-75 CNS) | TGI (SW-620 colon) | TGI (T-47D breast) | TGI (TK-10 renal) | TGI (U251 CNS) | TGI (UACC-257 melanoma) | TGI (UACC-62 melanoma) | TGI (UO-31 renal)
inactive: GI50 (786-0 renal) > 100 µM | GI50 (A498 renal) > 100 µM | GI50 (A549 NSCLC) > 100 µM | GI50 (ACHN renal) > 100 µM | GI50 (BT-549 breast) > 100 µM | GI50 (CAKI-1 renal) > 100 µM | GI50 (CCRF-CEM leukemia) 29.3 µM | GI50 (COLO 205 colon) > 100 µM | GI50 (DU-145 prostate) > 100 µM | GI50 (EKVX NSCLC) > 100 µM | GI50 (HCC-2998 colon) > 100 µM | GI50 (HCT-116 colon) > 100 µM | GI50 (HCT-15 colon) > 100 µM | GI50 (HL-60(TB) leukemia) > 100 µM | GI50 (HOP-62 NSCLC) > 100 µM | GI50 (HS 578T breast) > 100 µM | GI50 (HT29 colon) > 100 µM | GI50 (IGROV1 ovarian) > 100 µM | GI50 (K-562 leukemia) > 100 µM | GI50 (KM12 colon) > 100 µM | GI50 (LOX IMVI melanoma) > 100 µM | GI50 (M14 melanoma) > 100 µM | GI50 (MALME-3M melanoma) > 100 µM | GI50 (MCF7 breast) > 100 µM | GI50 (MDA-MB-231 breast) > 100 µM | GI50 (MDA-MB-435) > 100 µM | GI50 (MDA-N) > 100 µM | GI50 (MOLT-4 leukemia) > 100 µM | GI50 (NCI-H226 lung) > 100 µM | GI50 (NCI-H23 lung) > 100 µM | GI50 (NCI-H322M lung) > 100 µM | GI50 (NCI-H460 lung) > 100 µM | GI50 (NCI-H522 lung) 86.7 µM | GI50 (NCI/ADR-RES ovarian) > 100 µM | GI50 (OVCAR-3 ovarian) > 100 µM | GI50 (OVCAR-4 ovarian) > 100 µM | GI50 (OVCAR-5 ovarian) > 100 µM | GI50 (OVCAR-8 ovarian) > 100 µM | GI50 (PC-3 prostate) > 100 µM | GI50 (RPMI-8226 leukemia) > 100 µM | GI50 (RXF 393 renal) > 100 µM | GI50 (SF-268 CNS) > 100 µM | GI50 (SF-295 CNS) > 100 µM | GI50 (SF-539 CNS) 51.4 µM | GI50 (SK-MEL-2 melanoma) > 100 µM | GI50 (SK-MEL-28 melanoma) > 100 µM | GI50 (SK-MEL-5 melanoma) > 100 µM | GI50 (SK-OV-3 ovarian) > 100 µM | GI50 (SN12C renal) > 100 µM | GI50 (SNB-19 CNS) > 100 µM | GI50 (SNB-75 CNS) > 100 µM | GI50 (SW-620 colon) > 100 µM | GI50 (T-47D breast) > 100 µM | GI50 (TK-10 renal) > 100 µM | GI50 (U251 CNS) 66.2 µM | GI50 (UACC-257 melanoma) > 100 µM | GI50 (UACC-62 melanoma) > 100 µM | GI50 (UO-31 renal) > 100 µM
